Assay results taken from publication PMC10552397, “The Golgi stacking protein GRASP55 is targeted by the natural compound prodigiosin” (Cell Communication and Signaling : CCS, 2023).

Tests used:
HeLa GRASP55 KO cells [1] = conditions: 24 h treatment, GRASP55 KO vs wt
GRASP55 [2] = target: T1, GRASP55 (Homo sapiens, UniProt Q9H8Y8); test: CETSA (immunoblot quantification of non-denatured GRASP55); type: binding; set-up: GRASP55 protein quantification from the non-denatured protein fractions of prodigiosin or DMSO treated HeLa cells; endogenous in cells; host or cells: HeLa wt cells; conditions: 100 nM, 6 h, HeLa wt, collation ratio
Method: For thermal proteome profiling temperature range (TPP-TR) experiments, 6*10^6 HeLa wt cells were seeded per 15 cm dish and, on the next day, incubated with 100 nM prodigiosin (final concentration in final 0.1% v/v DMSO in cell culture medium) or 0.1% v/v DMSO in cell culture medium as vehicle control for 6 h. For thermal proteome profiling compound concentration range (TPP-CCR) experiments, 2.35*10^6 HeLa wt cells were seeded per 10 cm dish and, on the next day, incubated with the indicated final concentrations (Table 1) of prodigiosin (in final 0.1% v/v DMSO in cell culture medium) for 6 h. […]
(§1) After temperature treatment, samples were supplemented with lysis buffer (final concentrations: 0.36 U/µL benzonase, 1.5 mM MgCl2, 1 mM Na3VO4, 10 mM NaF, 2.5 mM Na4P2O7, 0.8% w/v NP-40) for 1 h on ice. […] The total protein concentration of the resulting cell extracts containing the fraction of soluble, non-denatured proteins was determined (Pierce 660 nm Protein Assay, BSA as standard). […] The two (37 °C or 50 °C) x ten (concentrations) x three (replicates) = 60 TPP-CCR samples and two (treatment and control) x ten (temperatures) x three (replicates) = 60 TPP-TR samples were analyzed by LC–MS/MS. GRASP55 was additionally quantified from the TPP-TR samples by immunoblotting as described in the respective section. […]

SDC4 = target: T2, SDC4 (Homo sapiens, UniProt P31431); test: TPP-TR/RTSA, SDC4; type: binding; conditions: abundance, treatment vs control at 36.5 °C
T2 construct: endogenous in cells; host or cells: HeLa wt cells
T2 sequence (P31431 19-198): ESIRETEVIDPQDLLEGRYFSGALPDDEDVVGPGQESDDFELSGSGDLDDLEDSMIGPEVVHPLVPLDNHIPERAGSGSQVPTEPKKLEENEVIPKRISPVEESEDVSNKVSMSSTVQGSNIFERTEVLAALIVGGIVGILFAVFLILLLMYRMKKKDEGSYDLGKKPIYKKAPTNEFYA
Method: (§2) TPP was performed essentially as described, but with major modifications to the TMT labeling sets and statistical data analysis for TPP-TR.
(§3) For thermal proteome profiling temperature range (TPP-TR) experiments, 6*10^6 HeLa wt cells were seeded per 15 cm dish and, on the next day, incubated with 100 nM prodigiosin (final concentration in final 0.1% v/v DMSO in cell culture medium) or 0.1% v/v DMSO in cell culture medium as vehicle control for 6 h. […]
as §1

HeLa GRASP55 KO cells [3] = test: Transmission electron microscopy of Golgi apparatus, HeLa GRASP55 KO; type: cell-based; conditions: 10 nM, 24 h
Method: (§4) HeLa wt and HeLa GRASP55 KO cells were seeded into 10 cm dishes. On the next day, cells were treated with 0.1% DMSO, 10 nM prodigiosin or 100 nM prodigiosin for 24 h. After treatment, cells were washed with Dulbecco´s phosphate-buffered saline (DPBS, Thermo Fisher Scientific, Waltham, MA, USA, #14,190,250) and then fixed using 2.5% glutaraldehyde and 4% paraformaldehyde in 0.1 M sodium cacodylate, pH 7.4 overnight at 4 °C. Then, cells were harvested with a cell scraper and centrifuged at 4,000 × g for 5 min. Cell pellets were washed twice with 0.1 M sodium cacodylate buffer, pH 7.2, then heated to 40 °C and embedded into 3% low melting agarose. The agarose was dissolved at 40 °C in a water bath and after aspiration of the supernatant a volume of approximately 10 µL was left, which was resuspended in agarose. After centrifugation at approximately 4,000 x g for 2 min, the samples were covered with 1% OsO4 in 0.1 M sodium cacodylate buffer for 60 min at RT. After washing two times with sodium cacodylate buffer for 10 min and twice with 70% EtOH for 15 min at RT, block contrast was applied using 1% uranyl acetate/1% phosphorotungstic acid in 70% EtOH (freshly prepared and filtered) for 1 h at RT. The samples were dehydrated in a graded ethanol series (90% EtOH, 96% EtOH, 100% EtOH) and embedded in SPURR epoxy resin (Serva, Heidelberg, Germany, #21,050). […]

JUNB = test: TPP-TR/RTSA, JUNB; type: binding, Homo sapiens; conditions: abundance, treatment vs control at 36.5 °C
Method: as §2, §3, §1

GRASP55 [4] = target: T1, GRASP55; test: Thermal proteome profiling temperature range (TPP-TR/RTSA), GRASP55; type: binding; set-up: GRASP55 protein quantification from the non-denatured protein fractions of prodigiosin or DMSO treated HeLa cells; endogenous in cells; host or cells: HeLa wt cells; conditions: 100 nM, 6 h, HeLa wt, collation ratio
Method: as §2, §3, §1

EFEMP1 = target: T3, EFEMP1 (Homo sapiens, UniProt Q12805); test: TPP-TR/RTSA, EFEMP1; type: binding; conditions: abundance, treatment vs control at 36.5 °C
T3 construct: endogenous in cells; host or cells: HeLa wt cells
T3 sequence (Q12805 18-493): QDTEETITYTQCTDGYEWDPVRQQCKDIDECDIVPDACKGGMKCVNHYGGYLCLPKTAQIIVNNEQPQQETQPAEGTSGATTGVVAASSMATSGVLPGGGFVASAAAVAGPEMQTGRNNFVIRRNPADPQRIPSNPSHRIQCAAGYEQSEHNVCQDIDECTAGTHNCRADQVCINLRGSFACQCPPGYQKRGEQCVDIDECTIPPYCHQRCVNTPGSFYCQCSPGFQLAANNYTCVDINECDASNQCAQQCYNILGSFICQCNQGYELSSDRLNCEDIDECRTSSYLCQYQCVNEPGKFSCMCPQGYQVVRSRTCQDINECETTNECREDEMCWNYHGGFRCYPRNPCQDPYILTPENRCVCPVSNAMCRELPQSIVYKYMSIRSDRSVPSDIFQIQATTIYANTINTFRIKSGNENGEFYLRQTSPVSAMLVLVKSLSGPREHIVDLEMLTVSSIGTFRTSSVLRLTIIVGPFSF
Method: as §2, §3, §1

JUN = test: TPP-TR/RTSA, JUN; type: binding, Homo sapiens; conditions: abundance, treatment vs control at 36.5 °C
Method: as §2, §3, §1

HeLa wt cells = test: Transmission electron microscopy of Golgi apparatus, HeLa wt; type: cell-based; conditions: 10 nM, 24 h, vs DMSO
Method: as §4

CCCCCC1=C/C(=C/c2[nH]c(-c3ccc[nH]3)cc2OC)N=C1C [Prodigiosin, prodigiosin] was tested, and the “IC50 of KO cells relative to wt cells” value (HeLa GRASP55 KO cells [1]) was “approximately threefold”, the “col.ratio GRASP55 (CETSA)” value (GRASP55 [2]) was 5.5 and the meanlog2Ratio36.5C (SDC4) was 0.3904. For the same compound, the “ratio between disorganized membranes and distinguishable Golgi stacks” value (HeLa GRASP55 KO cells [3]) was “no change”, the meanlog2Ratio36.5C (JUNB) was 0.7033 and the “col.ratio GRASP55 (TPP-TR)” value (GRASP55 [4]) was 1.1. The meanlog2Ratio36.5C (EFEMP1) was 0.6341, the meanlog2Ratio36.5C (JUN) was 0.7116 and the “ratio between disorganized membranes and distinguishable Golgi stacks” value (HeLa wt cells) was “clearly increased”.
